Marks after values point to notes of the source that are not given here.
Key:
[1] = cell-free system; cited from earlier work
[2] = molecular target: tyrosinase (Agaricus bisporus, UniProt C7FF04); test: biochemical; details: read-out: Tyrosinase % Inhibition (150 µM)
[3] = molecular target: T1, elastase (Homo sapiens, UniProt P08246); test: Elastase inhibition assay; type: biochemical
T1 construct: purchased Sigma-Aldrich
T1 sequence (P08246 30-267): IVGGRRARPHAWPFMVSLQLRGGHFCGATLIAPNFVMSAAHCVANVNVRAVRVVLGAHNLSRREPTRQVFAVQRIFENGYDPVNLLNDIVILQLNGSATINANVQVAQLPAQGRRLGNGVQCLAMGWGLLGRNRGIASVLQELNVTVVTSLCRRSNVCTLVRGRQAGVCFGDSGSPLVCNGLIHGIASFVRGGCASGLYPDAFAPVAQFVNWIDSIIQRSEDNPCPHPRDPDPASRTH

Amino acid sequences for entries named in this document (tags omitted). Residues count along the entry.
UniProt C7FF04, 2-392: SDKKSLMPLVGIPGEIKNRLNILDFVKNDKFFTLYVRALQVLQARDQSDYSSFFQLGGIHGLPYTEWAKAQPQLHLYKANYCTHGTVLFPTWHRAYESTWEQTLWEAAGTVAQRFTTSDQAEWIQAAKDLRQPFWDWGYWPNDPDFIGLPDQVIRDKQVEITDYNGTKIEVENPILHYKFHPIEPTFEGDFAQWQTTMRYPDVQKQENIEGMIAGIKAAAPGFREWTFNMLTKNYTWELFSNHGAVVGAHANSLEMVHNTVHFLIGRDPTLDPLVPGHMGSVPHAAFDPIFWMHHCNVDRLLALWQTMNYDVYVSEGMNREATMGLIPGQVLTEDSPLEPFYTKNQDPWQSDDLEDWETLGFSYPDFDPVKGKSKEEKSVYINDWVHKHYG

[4] = system: HaCaT cells; test: ROS generation assay (DCFH-DA); type: cell-based, human; details: 12.5-200 µM, 24 h
Procedure: The HaCaT cells were maintained at 37 °C in a humidified atmosphere of 95% air and 5% CO2 in the incubator in dulbecco’s modified eagle’s medium (DMEM) with 10% fetal bovine serum (FBS) and 1% antibiotics. Using an inverted microscope, cell confluence was observed and if the cells reached 70–80% confluence, subculture was done to prevent cell death. For this purpose, the culture medium was aspirated and the cells were washed with dulbecco’s phosphate buffered saline (DPBS), 2 mL of trypsin-EDTA were added and incubated for 5–8 min at 37 °C in a 5% CO2 atmosphere. After cell detaching, medium was added in order to block the trypsin action and cell suspension was centrifuged at 416 g for 5 min. The supernatant was discarded, the pellet suspended in culture medium, and cells were counted. For cell counting: 50 μL of cell suspension were added to 50 μL of Trypan Blue vital dye […], resuspended, placed in a Neubauer chamber (Hirschmann, Germany) and the viable cells were counted. […]
Cells (2 × 10^4 cells/well) were seeded on 96-well tissue culture plates and incubated at 37 °C in a 5% CO2 atmosphere for 24 h. […] After incubation, the fluorescence was measured using a fluorescence plate reader with a baseline of 485 nm excitation and 530 nm emission. The study of the putative interference of compound and solvent fluorescence was previously performed. […]

[5] = system: collagenase; test: Collagenase inhibition assay; type: biochemical
Procedure: An adaptation of the method of Moore and Stein [40] with modifications by Mandl et al. was used to determine anticollagenase activity. To 2 mL test tubes was added: 25 μL of collagenase solution (0.8 U/mL), 25 μL TES buffer (50 mM) with 0.36 mM calcium chloride (pH 7.4) and 50 μL of test sample or the reference compound EDTA (with concentrations ranging between 9.4 and 150 μM). The tubes were incubated in a water bath at 37 °C for 20 min. Thereafter, 50 μL FALGPA (1 mM) solution was added to the tubes and incubated further for 60 min at 37 °C. To all tubes, 200 μL of a solution containing equal volumes of a 1.6 mg/mLTin chloride (II) solution in 200 mM citrate buffer (pH 5) and 50 mg/mL ninhydrin solution in DMSO was added. All tubes were placed in a water bath (100 °C) for 5 min and left to cool to room temperature before adding 200 μL of 50% isopropanol to each tube. Contents in the tubes were then transferred to respective wells in 96-well plates.

[6] = DPPH reduction assay; details: IC50 not determinable, probably due to solubility issues
Procedure: The reduction of the stable DPPH free radical was measured by monitoring the change in absorbance at 517 nm. These experiments were made in a 96-well microplate. Compounds 1, 2 and 3 were dissolved in ethanol 70%, and compounds 4 and 5 were dissolved in a solution of ethanol 70% with 1% DMSO. In each experiment, the compounds were tested in the concentration range 0.7812 μM to 50 μM, in triplicate. For each sample concentration, a blank with ethanol 70%, instead of DPPH was made. Ascorbic acid was used as a positive control and tested in the same conditions. Blanks containing only ethanol 70% and control containing DPPH in ethanol 70% (190 μM) were used. The absorbance at 517 nm was measured in a microplate reader BioTek^TM Synergy HT (BioTeck Instruments, Vermont, USA) after 60 min of incubation in the dark with a temperature-controlled holder at 25 °C. The microplate was shaken before each reading.
The scavenging percentage of DPPH was calculated using the following equation:(1) %scavenging of DPPH=100×(1−Abssample+DPPH−Abssample blank/AbsDPPH−AbsEtOH)
The IC50 value for each sample and for the ascorbic acid was obtained by linear regression.

SMILES	scavenging activity of NO [1]	inhibition at 150 µM [2]	inhibition at 150 µM [3]	ROS generation, fluorescence signal of DCFH-DA probe relative to solvent control [4]	Collagenase % Inhibition (150 µM) [5]	maximum reduction activity [6]
O=c1c2ccccc2oc2ccc(O)c(O)c12 [Compound 1, 1,2-dihydroxy-9H-xanthen-9-one]	did not show any scavenging activity	96.17 ± 0.88%	35.2 ± 1.84%	did not promote any significant increase		
Cc1cc(O)c(O)c2oc3ccccc3c(=O)c12 [Compound 2, 3,4-dihydroxy-1-methyl-9H-xanthen-9-one]		84 ± 1.87%	10.8 ± 0.39%			
Cc1cc(O)c(O)c2oc3cc(O)ccc3c(=O)c12 [Compound 3, 3,4,6-trihydroxy-1-methyl-9H-xanthen-9-one]		91.42 ± 0.23%	18.2 ± 0.71%		24.91 ± 0.93 ^b %	
Cc1cc(O)c2c(=O)c3c(O)cc(C)cc3oc2c1 [Compound 5, 1,8-dihydroxy-3,6-dimethyl-9H-xanthen-9-one]						lower than 50%
